Earlier results in US7090866B2.

Settings: intravenous dose

CCC(=O)N(c1ccccc1)C1CCN(CCc2ccccc2)CC1
dose recovered in urine as the unchanged drug: less than 10%

Some compounds may have been tested in ways that are not shown here.
